# AlphaSeq binding of Ab-91 heavy chain variants to a spike HR2 peptide

Reference: Engelhart et al. 2022, doi:10.1038/s41597-022-01779-4. File: FLAb, binding data.

Binding partner: SARS-CoV-2 spike HR2 peptide, sequence PDVDLGDISGINAS.

Parent scFv Ab-91: VL joined to VH by the linker GGGGSGGGGSGGGGS. Changes lie in the heavy chain CDRs alone.
VL: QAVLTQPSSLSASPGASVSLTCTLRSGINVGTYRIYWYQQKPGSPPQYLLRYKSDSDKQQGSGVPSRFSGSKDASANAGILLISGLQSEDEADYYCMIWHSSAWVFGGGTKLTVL
VH: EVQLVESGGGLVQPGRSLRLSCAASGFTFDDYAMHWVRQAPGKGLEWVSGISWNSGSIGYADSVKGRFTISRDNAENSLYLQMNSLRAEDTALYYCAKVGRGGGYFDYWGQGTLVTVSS

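Phage display of a naive human antibody library on the peptide gave the parent. Variants in AAYL51 differ from the parent at up to three CDR positions; double and triple changes were sampled at random. In AlphaSeq, yeast of one mating type display the scFv and yeast of the other type display the target. Binding brings cells together so that they mate, and sequencing counts the barcode pairs among the diploids. A regression on co-assayed BCL2-family reference pairs converts the normalised counts of each replicate to an apparent Kd. The assay was run in three technical replicates.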

Each variant is given by its three heavy chain CDRs, as the data file delimits them; those of the parent are GFTFDDYAMH, GISWNSGSIGYADSVK, VGRGGGYFDY. All variants listed here change S57 of the VH, counted from its first residue. Scale: log10 of Kd in nM, estimated from mating counts; low values are strong binders. Replicates are averaged; those with no signal do not enter the mean. "nd" means that the variant was in the library but no mating with the target was seen in that replicate; the authors take this as a sign of poor binding, and no number exists. Entries are sorted by rising average, undetected variants last. Three control strains display no target. For library AAYL51, 21% of the pairings with them gave a signal, with a median of 4.54 and one signal in twenty below 3.26, so weak values seen in few replicates may be background.

The variant GFFFDDYAMH | GISWNSGMIGYADSVK | VGRGGGYFDY showed 1.55, 1.67, 1.63 (mean 1.62).
The variant GFTFDDYAMH | GNSWNSGWIGYADSVK | AGRGGGYFDY showed 2.59, nd, nd.
The variant GFTFDDYAMH | GISWNSGFIGYHDSVK | VGRGGGYFDY showed 2.52, 2.73, 2.71 (mean 2.65).
The variant GFTFDDYAMH | GISWNMGEIGYADSVK | VGRGGGYFDY showed 2.66, 3.46, 2.26 (mean 2.79).
The variant GFTFDDYAMH | GISWNSGTIGYADSVK | VGRGGGYFDY showed 2.42, 2.81, 3.21 (mean 2.82).
The variant GFTFQDYAMH | GISWNSGTIGYADSVK | VGRGGGYCDY showed 3.17, 3.05, 3.04 (mean 3.09).
The variant GFTFDDYAMH | GISWNSGMIGLALSVK | VGRGGGYFDY showed 3.29, nd, 3.46 (mean 3.38).
The variant GFTFDKYAMH | GISWNSGPIGYADSVK | VGRGGGYFDY showed 3.57, nd, nd.
The variant GFTFDDYAMR | GISWNSGPIGYADSVK | VGRGGGNFDY showed nd, 3.74, nd.
The variant GFTFDDYAMH | GISWNSGGIGYADSVL | CGRGGGYFDY showed 3.95, 4.11, 4.19 (mean 4.08).
The variant GFTFDDYAME | GISWNSGRIGYADSVK | VGRGGGYFDY showed 4.11, nd, nd.
The variant GFTFDDYAMH | GISWNSGCIGYADSVK | VGRGGGYFLL showed 4.48, 4.36, 3.86 (mean 4.23).
The variant GFTFDDFAMH | GISWNSGWIQYADSVK | VGRGGGYFDY showed 4.71, nd, 4.04 (mean 4.38).
The variant GFTFDDYAMH | GISWNSGGIGYADSVK | VGRGMLYFDY showed 3.89, 4.58, 4.90 (mean 4.46).
The variant GFTFDDRAMH | GISWNSGYIGYADSVK | VGRGRGYFDY showed 4.44, nd, 4.54 (mean 4.49).
The variant NFTFDDYAMH | GISWNSGPIGYADSVK | VGRGGGYCDY showed nd, nd, 4.54.
The variant GFTFDDYAMH | GISWNRGNIGYADSVK | VGRGGGYFDY showed nd, nd, 4.58.
The variant GFTFCDYAMH | GISWNSGFIGYADFVK | VGRGGGYFDY showed nd, 4.59, nd.
The variant GKTFDDYAMH | GISWNSGAIGYADSVK | VGRGGGDFDY showed 4.60, nd, nd.
The variant GFTFDDYAMH | NISWNSGGIGYADSQK | VGRGGGYFDY showed nd, 4.70, nd.
The variant GFTFDDYYMH | GISWNSGDIGYADSVK | VGREGGYFDY showed 3.81, 5.88, nd (mean 4.85).
The variant GFTFDDYAMW | GISWNSGGIGYADSVK | VLRGGGYFDY showed 4.17, 5.26, 5.58 (mean 5.00).
The variant GFTFDDYAMH | GISWNSVFIGYKDSVK | VGRGGGYFDY showed nd, 5.32, nd.
The variant GFTFDDYAMH | KISWNSGNIGYADSVK | VGRGGGYFMY showed 5.76, 5.56, 5.69 (mean 5.67).
The variant GFTFDDYAYH | GISWNSGKIGYADSMK | VGRGGGYFDY showed 5.25, 6.40, 5.80 (mean 5.82).
The variant GGVFDDYAMH | GISWNSGFIGYADSVK | VGRGGGYFDY showed nd, nd, nd.
The variant GFTFDDYAMI | GIDWNSGEIGYADSVK | VGRGGGYFDY showed nd, nd, nd.
The variant GFTFDMYAMH | GISWNSGPIGYADSVK | VGRIGGYFDY showed nd, nd, nd.
The variant GFYFDDYAMH | GISWNSGFIGDADSVK | VGRGGGYFDY showed nd, nd, nd.
The variant GFTFDDYAMH | GISWNSGFIGYADSVK | VHAGGGYFDY showed nd, nd, nd.
The variant GFTFDDYAMH | YISWNSGHIGYADSVK | VGRGGGYFDN showed nd, nd, nd.
The variant GFTFDDYAMD | GISWNSGVIGYADSVK | VGRGQGYFDY showed nd, nd, nd.
The variant MFTFDDYAMH | GISWNSGAIGYADSVG | VGRGGGYFDY showed nd, nd, nd.
The variant GFTFDDYAMH | GISINSGTIGYADSVK | VGRMGGYFDY showed nd, nd, nd.
The variant GFTFDDYAMH | GISWNAGRIGYADSCK | VGRGGGYFDY showed nd, nd, nd.
The variant GFTFDDYAMH | GISWNSGRIGYADSVK | VGRPGGYFQY showed nd, nd, nd.
The variant GFTVDDYAMH | GISWNSGYIGYADSVK | VGRGGGYFDY showed nd, nd, nd.
The variant GFTFDDYAMH | GISWNSGPHLYADSVK | VGRGGGYFDY showed nd, nd, nd.
The variant GFTFDDYAMH | GISWNLGDIGYADSVE | VGRGGGYFDY showed nd, nd, nd.
The variant GFTFDDYAMR | GISWNSGMIIYADSVK | VGRGGGYFDY showed nd, nd, nd.
The variant GFTFDDYAMH | GISWNSGFIGYAYSVK | VGRRGGYFDY showed nd, nd, nd.
The variant GFTFDDYAFH | GISWNSGGWGYADSVK | VGRGGGYFDY showed nd, nd, nd.
The variant GFTFDDSAMH | GISWNSGHIGYADSVI | VGRGGGYFDY showed nd, nd, nd.
The variant GFTFDDYAMH | GISWNSGQISYADFVK | VGRGGGYFDY showed nd, nd, nd.

The closing 4 entries, repeated:

CDR-H1	CDR-H2	CDR-H3	log10 Kd (nM) by replicate	log10 Kd (nM), mean
GFTFDDYAMH	GISWNSGFIGYAYSVK	VGRRGGYFDY	nd, nd, nd	nd
GFTFDDYAFH	GISWNSGGWGYADSVK	VGRGGGYFDY	nd, nd, nd	nd
GFTFDDSAMH	GISWNSGHIGYADSVI	VGRGGGYFDY	nd, nd, nd	nd
GFTFDDYAMH	GISWNSGQISYADFVK	VGRGGGYFDY	nd, nd, nd	nd

In this assay the parent's reference entry averaged 1.86; its copy inside this library read 0.88.